# Values quoted from earlier work as cited in article PMC8566089 (Bioorganic Chemistry, 2021).
# Tested on: A431 (squamous skin) cancer cell line
# Settings: read-out: IC50 ± SE, A431; cited from earlier work
structure (smiles),measurement,value
"O=c1[nH]cc(F)c(=O)[nH]1 [Compound 5-FU, 5-fluorouracil, reference compound]",IC50,23.4 ± 2.09 µM
